The nature of data set [1]: Half life in phosphate buffer at pH 7.4 at 37 degC assessed as half life by LC/MS analysis. It is filed as physicochemical. In outline:
(§1)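 Compound dissolved from 1 mg/ml aqueous stock into preheated 200 mM phosphate buffer (pH 6.5 or 7.4), 37 °C water bath. Aliquots of 25 µL taken over time and analysed by LC-MS (C18, 0–30% acetonitrile in ammonium acetate pH 5.5, ESI positive, UV 260/274 nm). Half-lives determined for each diastereomer.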

A short description of data set [2]: Half life in Sprague-Dawley rat intestinal homogenate at pH 6.5 by LC/MS analysis. The data set is classed as ADME, tissue-based, Intestine. In outline:
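Sprague-Dawley rat intestine homogenized in 0.1 M phosphate buffer pH 6.5 and centrifuged at 14,000 × g. Compound stock (1 mg/ml, 400 µL) mixed with 260 µL buffer and 140 µL homogenate, 37 °C. Samples taken over time, quenched with methanol, centrifuged, supernatant analysed by LC-MS (C18, acetonitrile gradient in ammonium acetate pH 5.5). Run separately for each phosphorus diastereomer.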

Data set [3] is described as follows: Half life in phosphate buffer at pH 6.5 at 37 degC by LC/MS analysis. The data set is classed as physicochemical. In outline: as §1
The subject of the next data set is HFF. The data set is described as follows: Cytotoxicity against HFF cells after 48 hrs by visual cytotoxicity observation assay. The data set is classed as cell-based. As to conditions: Homo sapiens.

Where only a bound is given, the exact number is not on record here.

Consider `COC(=O)[C@H](Cc1ccc(O[P@@]2(=O)CO[C@@H](Cn3ccc(N)nc3=O)CO2)cc1)NC(=O)[C@@H](N)C(C)C`, for which the half-life – broadly, how long it takes for the measured level to halve – in data set [1] was 1.02 h; in data set [2], < 0.5 h; in data set [3], 5.77 h.
Consider `COC(=O)[C@H](Cc1ccc(O[P@]2(=O)CO[C@@H](Cn3ccc(N)nc3=O)CO2)cc1)NC(=O)[C@@H](N)C(C)C`, for which the results for the half-life in data set [1], in data set [2] and in data set [3] were 0.2 h, < 0.5 h and 1.12 h, respectively.
Turning to `COC(=O)[C@H](Cc1ccc(OP2(=O)CO[C@@H](Cn3ccc(N)nc3=O)CO2)cc1)NC(=O)[C@@H](N)C(C)C` (mixture of isomers), the IC50 (as a rule, the concentration at which inhibition is half-maximal) with HFF was > 100 µM.

The record behind these values is ChEMBL document CHEMBL1926544, “Tyrosine-based 1-(S)-[3-hydroxy-2-(phosphonomethoxy)propyl]cytosine and -adenine ((S)-HPMPC and (S)-HPMPA) prodrugs: synthesis, stability, antiviral activity, and in vivo transport studies” (J Med Chem, 2011).
